Experimental data taken from BindingDB's records for doi:10.1146/annurev.pharmtox.37.1.205 (Emory University, 1997).

Amino acid sequences for entries named in this document (tags omitted). A change or cut given only in a name is not applied to a line headed by its entry.
UniProt Q13255: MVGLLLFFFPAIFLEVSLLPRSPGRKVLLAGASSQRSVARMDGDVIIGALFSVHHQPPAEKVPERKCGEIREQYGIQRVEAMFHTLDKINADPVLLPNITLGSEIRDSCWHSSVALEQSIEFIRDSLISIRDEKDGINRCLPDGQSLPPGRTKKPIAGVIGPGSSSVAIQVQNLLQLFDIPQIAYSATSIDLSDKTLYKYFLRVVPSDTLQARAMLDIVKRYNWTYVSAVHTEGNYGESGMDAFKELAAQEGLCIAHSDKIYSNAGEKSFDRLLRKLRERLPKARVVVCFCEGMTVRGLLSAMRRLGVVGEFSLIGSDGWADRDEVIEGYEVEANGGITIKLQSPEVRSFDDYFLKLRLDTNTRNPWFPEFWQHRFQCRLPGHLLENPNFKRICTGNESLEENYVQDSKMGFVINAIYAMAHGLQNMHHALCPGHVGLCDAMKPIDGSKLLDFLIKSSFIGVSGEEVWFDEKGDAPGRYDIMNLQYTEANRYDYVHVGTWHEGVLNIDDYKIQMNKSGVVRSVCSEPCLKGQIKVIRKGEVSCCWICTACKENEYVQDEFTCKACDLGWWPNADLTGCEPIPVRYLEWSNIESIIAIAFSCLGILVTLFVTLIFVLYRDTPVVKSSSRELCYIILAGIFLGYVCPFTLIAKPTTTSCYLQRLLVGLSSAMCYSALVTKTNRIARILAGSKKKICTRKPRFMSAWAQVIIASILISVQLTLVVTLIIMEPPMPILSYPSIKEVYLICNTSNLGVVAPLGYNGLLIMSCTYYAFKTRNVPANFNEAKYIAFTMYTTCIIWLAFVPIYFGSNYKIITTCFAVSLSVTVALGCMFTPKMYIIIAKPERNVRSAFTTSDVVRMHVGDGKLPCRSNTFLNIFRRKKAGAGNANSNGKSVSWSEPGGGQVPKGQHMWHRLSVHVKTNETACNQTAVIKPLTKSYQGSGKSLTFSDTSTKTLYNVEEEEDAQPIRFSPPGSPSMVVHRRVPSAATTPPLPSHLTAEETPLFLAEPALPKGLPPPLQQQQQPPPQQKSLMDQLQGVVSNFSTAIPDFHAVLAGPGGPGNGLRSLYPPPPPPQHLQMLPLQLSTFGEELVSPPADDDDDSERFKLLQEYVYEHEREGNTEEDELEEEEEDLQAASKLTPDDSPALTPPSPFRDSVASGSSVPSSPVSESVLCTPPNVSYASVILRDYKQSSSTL

Target: Metabotropic glutamate receptor 1 (Homo sapiens, UniProt Q13255)

How did the Ki turn out when `N[C@@H](Cn1oc(=O)[nH]c1=O)C(=O)O` [2-amino-3-(3,5-dioxo[1,2,4]oxadiazolidin-2-yl)propionic acid] was run?
The Ki was 200 nM.
